Reference: ChEMBL document CHEMBL5523704, “Exploration of isoxazole analogs: Synthesis, COX inhibition, anticancer screening, 3D multicellular tumor spheroids, and molecular modeling” (Eur J Med Chem, 2024)

Amino acid sequences for entries named in this document (tags omitted).
UniProt P35354, whole entry: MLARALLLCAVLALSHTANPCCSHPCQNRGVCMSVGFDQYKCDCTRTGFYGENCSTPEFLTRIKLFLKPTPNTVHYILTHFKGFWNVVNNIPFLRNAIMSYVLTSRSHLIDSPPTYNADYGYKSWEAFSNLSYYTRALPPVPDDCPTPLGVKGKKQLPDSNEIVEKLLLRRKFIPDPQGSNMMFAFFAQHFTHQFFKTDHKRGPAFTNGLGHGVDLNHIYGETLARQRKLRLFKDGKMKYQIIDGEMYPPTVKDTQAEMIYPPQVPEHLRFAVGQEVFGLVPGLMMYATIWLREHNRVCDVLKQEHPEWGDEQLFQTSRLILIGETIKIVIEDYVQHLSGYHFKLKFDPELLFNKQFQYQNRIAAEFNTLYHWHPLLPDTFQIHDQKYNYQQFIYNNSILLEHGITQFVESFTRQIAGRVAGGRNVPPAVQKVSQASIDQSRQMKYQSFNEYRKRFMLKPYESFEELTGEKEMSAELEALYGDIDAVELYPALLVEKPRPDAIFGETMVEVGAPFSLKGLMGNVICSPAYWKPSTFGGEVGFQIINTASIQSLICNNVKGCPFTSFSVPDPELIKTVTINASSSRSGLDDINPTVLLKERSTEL

How the values were obtained:
[1] = biological target: Prostaglandin G/H synthase 2 (Homo sapiens) (UniProt P35354); assay: Inhibition of COX-2 (unknown origin) at 25 uM by fluorescence based analysis
[2] = Selectivity ratio of inhibition of COX2 (unknown origin) to inhibition of COX1 (unknown origin)

| inhibition [1] | Selectivity ratio [2] | Structure (SMILES) |
| --- | --- | --- |
| 61% |  | OC[C@H]1O[C@@H](Cc2cc(-c3c[nH]c4ccccc34)on2)[C@H](O)[C@@H](O)[C@H]1O |
|  | 3.67 | COc1ccc(-c2nc(C(=O)Nc3cc(OC)c(OC)c(OC)c3)cs2)cc1 |
